From ChEMBL document CHEMBL1201862, “PubChem BioAssay data set” (2004)
This is one part of the list. Only a part of the results of these assays is listed, not drawn at random. The source made the active and inactive calls. The calls are words filed in the database; no cut-off is given here.

By UniProt entry, the sequences of proteins in these tests, tags left out.
UniProt P84022, whole entry, looked up: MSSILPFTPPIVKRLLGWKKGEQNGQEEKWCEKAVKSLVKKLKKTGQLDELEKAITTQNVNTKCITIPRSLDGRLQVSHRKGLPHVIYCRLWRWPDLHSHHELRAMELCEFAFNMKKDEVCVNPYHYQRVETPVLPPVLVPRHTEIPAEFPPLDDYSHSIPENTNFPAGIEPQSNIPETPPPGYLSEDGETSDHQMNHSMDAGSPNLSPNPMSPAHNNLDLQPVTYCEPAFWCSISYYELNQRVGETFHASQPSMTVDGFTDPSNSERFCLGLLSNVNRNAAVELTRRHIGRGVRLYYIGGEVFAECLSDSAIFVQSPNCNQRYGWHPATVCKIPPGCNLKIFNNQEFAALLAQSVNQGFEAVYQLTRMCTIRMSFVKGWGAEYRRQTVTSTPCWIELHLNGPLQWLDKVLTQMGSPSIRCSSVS

Target: Mothers against decapentaplegic homolog 3 (Homo sapiens) (UniProt P84022)
Test: qHTS for Inhibitors of TGF-b. [Related pubchem assays (depositor defined):AID588856, AID588860]
Format: functional

With `CC[n+]1c(/C=C/N(C)c2ccccc2)oc2ccccc21` as the compound, how does the Potency read?
The Potency was “inactive”.

How did the Potency turn out when `O=C(O)[C@@H](O)c1ccccc1` was run?
Its Potency is “inactive”.
